From BindingDB's records for 1320121

Chains of the proteins cited; added tags and fusions are not shown.
UniProt P41143, whole entry, looked up: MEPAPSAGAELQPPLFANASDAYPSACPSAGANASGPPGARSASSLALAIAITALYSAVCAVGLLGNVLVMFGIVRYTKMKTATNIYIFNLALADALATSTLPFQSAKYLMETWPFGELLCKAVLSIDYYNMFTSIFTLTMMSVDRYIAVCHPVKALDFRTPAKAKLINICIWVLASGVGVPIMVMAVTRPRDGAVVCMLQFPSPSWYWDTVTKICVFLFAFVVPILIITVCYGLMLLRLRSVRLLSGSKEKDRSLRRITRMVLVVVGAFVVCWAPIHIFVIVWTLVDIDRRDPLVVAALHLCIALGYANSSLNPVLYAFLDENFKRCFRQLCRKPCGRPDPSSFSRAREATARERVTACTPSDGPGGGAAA

Molecular target: Delta-type opioid receptor (Homo sapiens, UniProt P41143)
Assay: ChEBML_146873

## C=C(CO[C@@H]1CC[C@@]2(O)[C@H]3Cc4ccc(O)c5c4[C@@]2(CCN3CC2CC2)[C@H]1O5)C(=O)OC
  IC50: 1.4 nM
